Reference: ChEMBL document CHEMBL3217531, “Potential Drug Abuse Therapeutics Derived from the Hallucinogenic Natural Product Salvinorin A” (Medchemcomm, 2011)

Protein sequences, listed by entry. Tags and fused reporters are not part of them. Lines headed by an entry give the natural chain unless they say otherwise; changes in a name come on top.
UniProt P41145: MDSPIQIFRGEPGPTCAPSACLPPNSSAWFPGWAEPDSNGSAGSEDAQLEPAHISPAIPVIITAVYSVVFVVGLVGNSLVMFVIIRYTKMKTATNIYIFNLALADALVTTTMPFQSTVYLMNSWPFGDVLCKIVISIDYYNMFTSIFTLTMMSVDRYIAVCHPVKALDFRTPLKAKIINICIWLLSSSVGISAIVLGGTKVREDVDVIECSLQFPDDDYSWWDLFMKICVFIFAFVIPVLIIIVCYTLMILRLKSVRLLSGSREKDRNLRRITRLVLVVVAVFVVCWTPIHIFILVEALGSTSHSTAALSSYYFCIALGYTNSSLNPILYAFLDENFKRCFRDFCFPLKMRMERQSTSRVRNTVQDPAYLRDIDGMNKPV

Key:
[1] = biological target: T1, Kappa-type opioid receptor (Homo sapiens, UniProt P41145); assay: Agonist activity at human kappa opioid receptor expressed in CHO cell membrane assessed as [35S]GTPgammaS binding after 3 hrs by liquid scintillation counting analysis; format: functional, cell membranes
[2] = biological target: T1, Kappa-type opioid receptor; assay: Agonist activity at human kappa opioid receptor expressed in CHO cell membrane assessed as [35S]GTPgammaS binding after 3 hrs by liquid scintillation counting analysis relative to (-)-U50488H; format: functional, cell membranes

COCO[C@H]1C[C@@H](C(=O)OC)[C@]2(C)CC[C@H]3C(=O)O[C@H](c4ccoc4)C[C@]3(C)[C@H]2C1=O
ED50 [1]: 6 nM
Emax [2]: 118%
